The values below come from PubChem BioAssay AID624125 (The Scripps Research Institute Molecular Screening Center, 2012).

Protein sequences, listed by entry. Tags and fused reporters are not part of them.
UniProt P08173, whole entry: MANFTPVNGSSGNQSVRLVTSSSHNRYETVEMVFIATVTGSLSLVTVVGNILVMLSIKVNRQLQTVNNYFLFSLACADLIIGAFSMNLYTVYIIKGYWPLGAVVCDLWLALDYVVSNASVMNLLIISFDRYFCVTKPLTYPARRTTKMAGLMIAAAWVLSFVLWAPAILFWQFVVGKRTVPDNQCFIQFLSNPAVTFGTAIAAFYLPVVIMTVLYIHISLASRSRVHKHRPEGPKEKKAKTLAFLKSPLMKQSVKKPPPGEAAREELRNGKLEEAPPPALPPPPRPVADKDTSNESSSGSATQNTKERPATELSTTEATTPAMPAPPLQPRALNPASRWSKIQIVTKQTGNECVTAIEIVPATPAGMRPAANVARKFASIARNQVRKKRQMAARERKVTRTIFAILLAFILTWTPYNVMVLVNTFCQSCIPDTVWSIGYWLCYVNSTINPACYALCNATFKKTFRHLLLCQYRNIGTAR

The entries are a selection whose mix differs from that of the whole data set. Calls of active or inactive are those of the source.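 How the source made its calls: active means inhibition above its plate's cutoff, the mean inhibition of sample wells plus 3 SD (cut at about 27% in these data); inactive means the rest.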

This assay concerns the target Muscarinic acetylcholine receptor M4 (Homo sapiens) (UniProt P08173). The experiment in a line: CHRM4 blockers of acetylcholine calcium response – CHO cells, Fluo-8 calcium fluorescence, primary screen (AID 624125).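 Further: 0% = acetylcholine EC80 with DMSO and 100% = DMSO without agonist.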 Particulars: CHO-hM4 cells, ACh EC80, Fluo-8 calcium fluorescence; at 3 µM; stronger effect = higher value.
By inhibition is commonly meant the drop in the measured response relative to a control, in per cent. For `O=C(NCC1(N2CCOCC2)CCCCC1)c1cc(Br)ccc1Cl`, the inhibition was inactive: -28.9%.

For the compound `COc1cc(C(=O)NCC2(N3CCOCC3)CCCCC2)cc(OC)c1C`, the inhibition was inactive: -4.9%.

As for `CCCCn1nnnc1C(c1ccccc1)N1CCC(n2c(=O)[nH]c3ccccc32)CC1` (stereo not given), the inhibition was inactive: 12.1%.

`O=c1[nH]c2ccccc2n1C1CCN(C(c2ccnc3ccccc23)c2nnnn2C2CCCC2)CC1` (stereo not given): the inhibition was inactive: 4.58%.

For the compound `COc1ccc(C(=O)NCC2(N3CCOCC3)CCCCC2)cc1OC`, the inhibition is inactive: -9.04%.

Take `O=c1[nH]c2ccccc2n1C1CCN(C(c2cccs2)c2nnnn2C2CCCCC2)CC1` (stereo not given): the inhibition was inactive: 24.3%.

With `N/C(=N\O)c1c(N)no[n+]1[O-]`, the inhibition was inactive: -4.94%.

In the case of `COc1cccc(C(c2nnnn2C(C)(C)C)N2CCC(n3c(=O)[nH]c4ccccc43)CC2)c1OC` (stereo not given), the inhibition was inactive: -14.2%.

Consider `CCOC(=O)N1CCC(Nc2ccc(C)cc2)CC1`, for which the inhibition was inactive: 6.51%.

`CCCCn1nnnc1C(c1cccc(OC)c1OC)N1CCC(n2c(=O)[nH]c3ccccc32)CC1` (stereo not given): the inhibition is inactive: 14.8%.

With `O=c1[nH]c2ccccc2n1C1CCN(C(c2cccs2)c2nnnn2C2CCCC2)CC1` (stereo not given), the inhibition was inactive: 7.79%.

In the case of `CC(C)(C)OC(=O)N1CCC(N(C(=O)c2ccccc2)c2ccc(Cl)cc2)CC1`, the inhibition is inactive: -26.2%.

`N#Cc1ccc(C(=O)NCC2(N3CCCCC3)CCCCC2)cc1`: the inhibition was inactive: -4.76%.

`CCCN1CCC(Nc2cc(OC)cc(OC)c2)CC1`: the inhibition is inactive: -1.56%.

As to `O=c1[nH]c2ccccc2n1C1CCN(C(c2ccccc2)c2nnnn2C2CCCC2)CC1` (stereo not given), the inhibition was inactive: 12.9%.

Turning to `Cc1cc(N(CCCl)CCCl)ccc1C=O`, the inhibition was inactive: -7.69%.

`c1ccc(CN2CCC(Nc3ccccc3)CC2)cc1`: the inhibition was inactive: -1.66%.

Take `CN(C)C1(CNC(=O)c2cccc(C#N)c2)CCCCC1`: the inhibition is inactive: -8.08%.

For the compound `CC(C)(C)n1nnnc1C(c1cccc2ccccc12)N1CCC(n2c(=O)[nH]c3ccccc32)CC1` (stereo not given), the inhibition is inactive: 10.7%.

`O=c1[nH]c2ccccc2n1C1CCN(C(c2ccnc3ccccc23)c2nnnn2C2CCCCC2)CC1` (stereo not given): the inhibition is inactive: -2.52%.

Turning to `COc1cc(OC)cc(C(=O)NCC2(N3CCCCC3)CCCCC2)c1`, the inhibition was inactive: 3.55%.

For the compound `CCC(c1nnnn1C1CCCCC1)N1CCC(n2c(=O)[nH]c3ccccc32)CC1` (stereo not given), the inhibition was inactive: -20.2%.

On to `CC(=O)N(c1ccccc1)C1CCNCC1`, for which the inhibition is inactive: -9.34%.

Consider `COc1cccc(C(c2nnnn2C2CCCCC2)N2CCC(n3c(=O)[nH]c4ccccc43)CC2)c1OC` (stereo not given), for which the inhibition is inactive: 22.7%.

Consider `Cc1ccc(NC2(C#N)CCN(Cc3ccccc3)CC2)cc1`, for which the inhibition is inactive: -3.9%.
